{"sequences": {"note": "By UniProt entry, the sequences of proteins in these tests, tags left out.", "UniProt P62483, whole entry": "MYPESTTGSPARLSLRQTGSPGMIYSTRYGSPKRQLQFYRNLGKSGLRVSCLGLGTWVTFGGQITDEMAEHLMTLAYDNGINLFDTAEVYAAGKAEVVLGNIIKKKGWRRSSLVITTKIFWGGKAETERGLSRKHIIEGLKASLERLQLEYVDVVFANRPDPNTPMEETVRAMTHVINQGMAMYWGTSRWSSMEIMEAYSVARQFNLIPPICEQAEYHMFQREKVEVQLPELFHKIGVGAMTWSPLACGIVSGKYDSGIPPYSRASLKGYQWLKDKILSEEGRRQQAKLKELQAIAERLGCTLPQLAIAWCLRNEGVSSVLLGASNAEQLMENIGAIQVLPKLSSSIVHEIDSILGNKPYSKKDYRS"}, "source": "PubChem BioAssay AID623", "about": "(Vanderbilt High Throughput Screening Facility, 2007)", "note": "The entries are a selection whose mix differs from that of the whole data set. Some results for these compounds are left out of this collection, so the calls shown say nothing about other tests. The source made the active and inactive calls.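 How the source made its calls: active means NADPH fluorescence slope more negative than the mean of all samples by about 3 SD, 99.7% confidence; inactive means the rest.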"}
{"target": "Voltage-gated potassium channel subunit beta-2 (Rattus norvegicus) (UniProt P62483)", "experiment": "enhancers of rat Kvbeta2 NADPH turnover – biochemical, NADPH fluorescence, primary screen (AID 623);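 further: fluorescence intensity change per second fitted from 20 to 320 s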", "details": "Recombinant KvBeta, NADPH fluorescence decrease slope, 10 min; at 10 µM; stronger effect = lower value"}
{"smiles": "O=C(OC1CN2CCC1CC2)C(CO)(c1ccccc1)c1ccccc1", "note": "(stereo unspecified)", "NADPH fluorescence slope": "inactive: -7e-05"}
